Laboratory results taken from ChEMBL document CHEMBL1122729, “Nonquaternary cholinesterase reactivators. 2. Alpha-heteroaromatic aldoximes and thiohydroximates as reactivators of ethyl methylphosphonyl-acetylcholinesterase in vitro” (1984).

Chains of the proteins cited; added tags and fusions are not shown. Lines headed by an entry give the natural chain unless they say otherwise; changes in a name come on top.
UniProt O42275: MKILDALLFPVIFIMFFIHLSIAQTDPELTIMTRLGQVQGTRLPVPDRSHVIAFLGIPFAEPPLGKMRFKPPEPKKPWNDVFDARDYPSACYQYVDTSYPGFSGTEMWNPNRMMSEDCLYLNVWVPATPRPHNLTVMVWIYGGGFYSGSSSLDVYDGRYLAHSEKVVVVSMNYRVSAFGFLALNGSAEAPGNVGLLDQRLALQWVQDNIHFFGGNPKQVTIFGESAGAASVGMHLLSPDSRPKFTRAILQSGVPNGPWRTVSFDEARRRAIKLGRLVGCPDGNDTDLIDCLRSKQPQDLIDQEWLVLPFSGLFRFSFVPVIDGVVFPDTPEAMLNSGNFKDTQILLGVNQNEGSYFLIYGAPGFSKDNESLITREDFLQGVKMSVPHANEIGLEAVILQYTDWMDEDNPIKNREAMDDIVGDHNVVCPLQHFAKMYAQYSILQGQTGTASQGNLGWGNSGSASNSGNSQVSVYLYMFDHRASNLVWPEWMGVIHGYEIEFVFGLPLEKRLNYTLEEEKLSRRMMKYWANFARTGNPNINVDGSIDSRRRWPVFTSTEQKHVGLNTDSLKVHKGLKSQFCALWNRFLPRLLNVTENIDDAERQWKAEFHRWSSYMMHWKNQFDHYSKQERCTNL

Assays:
[1] = target: Acetylcholinesterase (Electrophorus electricus) (UniProt O42275); test: Compound was evaluated in vitro at 10 uM for inhibition of acetylcholinesterase (AChE)at a pH of 8 in the presence of 7.5*10e-4 acetylthiocholine
[2] = target: Acetylcholinesterase (Electrophorus electricus) (UniProt O42275); test: Compound was evaluated in vitro at 1.50 uM for inhibition of acetylcholinesterase (AChE)at a pH of 8 in the presence of 7.5*10e-4 acetylthiocholine
[3] = target: Acetylcholinesterase (Electrophorus electricus) (UniProt O42275); test: Compound was evaluated in vitro at 40 uM for inhibition of acetylcholinesterase (AChE)at a pH of 8 in the presence of 7.5*10e-4 acetylthiocholine
[4] = target: Acetylcholinesterase (Electrophorus electricus) (UniProt O42275); test: Compound was evaluated in vitro at 15 uM for inhibition of acetylcholinesterase (AChE)at a pH of 8 in the presence of 7.5*10e-4 acetylthiocholine
[5] = target: Acetylcholinesterase (Electrophorus electricus) (UniProt O42275); test: Compound was evaluated in vitro at 5 uM for inhibition of acetylcholinesterase (AChE)at a pH of 8 in the presence of 7.5*10e-4 acetylthiocholine
[6] = target: Acetylcholinesterase (Electrophorus electricus) (UniProt O42275); test: Compound was evaluated in vitro at 50 uM for inhibition of acetylcholinesterase (AChE)at a pH of 8 in the presence of 7.5*10e-4 acetylthiocholine
[7] = target: Acetylcholinesterase (Electrophorus electricus) (UniProt O42275); test: Compound was evaluated in vitro at 2 uM for inhibition of acetylcholinesterase (AChE)at a pH of 8 in the presence of 7.5*10e-4 acetylthiocholine
[8] = target: Acetylcholinesterase (Electrophorus electricus) (UniProt O42275); test: Compound was evaluated in vitro at 25 uM for inhibition of acetylcholinesterase (AChE)at a pH of 8 in the presence of 7.5*10e-4 acetylthiocholine
[9] = target: Acetylcholinesterase (Electrophorus electricus) (UniProt O42275); test: Compound was evaluated in vitro at 100 uM for inhibition of acetylcholinesterase (AChE)at a pH of 8 in the presence of 7.5*10e-4 acetylthiocholine
[10] = target: Acetylcholinesterase (Electrophorus electricus) (UniProt O42275); test: Concentration at 5 uM that inhibits 50%of acetylcholinesterase activity evaluated in vitro at a pH of 8 in the presence of 7.5x10E-4 acetylthiocholine
[11] = target: Acetylcholinesterase (Electrophorus electricus) (UniProt O42275); test: Concentration at 25 uM that inhibits 50%of acetylcholinesterase activity evaluated in vitro at a pH of 8 in the presence of 7.5x10E-4 acetylthiocholine
[12] = target: Acetylcholinesterase (Electrophorus electricus) (UniProt O42275); test: Concentration at 10 uM that inhibits 50%of acetylcholinesterase activity evaluated in vitro at a pH of 8 in the presence of 7.5x10E-4 acetylthiocholine

SMILES | inhibition [1] [%] | inhibition [6] [%] | inhibition [7] [%] | further results
Cc1nonc1/C=N/O | 8.7 | – | – | –
CCN(CC)CCS/C(=N\O)c1nc(-c2ccccc2)no1 | – | 84 | – | inhibition [2]: 20.3%; inhibition [3]: 80.6%; inhibition [4]: 62.1%; inhibition [5]: 64.3%
O/N=C/c1nc(-c2ccccc2)no1 | 1.7 | – | – | –
O/N=C\c1cnsn1 | 5.7 | – | – | –
CCN(CC)CCS/C(=N/O)c1cnsn1 | 10 | 9.1 | 4 | inhibition [5]: 13.4%; inhibition [8]: 17.4%
O/N=C/c1cnns1 | – | – | -4 | –
Cc1nsnc1/C=N\O | 7.5 | – | – | –
O/N=C/c1nnc(-c2ccccc2)o1 | 10.4 | – | – | –
Cc1nsc(/C=N/O)n1 | – | – | -1.1 | –
CCN(CC)CCS/C(=N/O)c1nsnc1C | 9.97 | 15.4 | – | inhibition [9]: 25.9%
CCN(CC)CCS/C(=N/O)c1nonc1C | 8.4 | 26.9 | – | inhibition [9]: 39.3%
CCN(CC)CCS/C(=N\O)c1nc(C)no1 | 19 | 34.9 | – | inhibition [8]: 22.2%
CCN(CC)CCS/C(=N\O)c1nnc(-c2ccccc2)o1 | – | – | 2.53 | inhibition [10]: 16.9%; inhibition [11]: 54.2%; inhibition [12]: 25.5%
Cc1noc(/C=N/O)n1 | – | – | 5.6 | –
